The subject of one data set is MDA-MB-231 cells. Details: method as in PMID 17049494. To be noted: MDA-MB-231, 48h, CuB from plant extract; read-out: IC50 (cytotoxicity); cited from earlier work.
Data set [1] is described as follows: Enzymatic activities of AST, ALT and LDH in plasma. Format: in vivo, female BALB/c mice. To be noted: 1mg/kg i.p. How it is done: (§1) To test the efficacy of CuB in vivo, two breast tumor experiments were performed. In the first experiment, 5X10^6 MDA-MB-231 cells were injected orthotopically in the mammary fat pads of female athymic nude mice. Once each mouse attained palpable tumors, mice were randomly divided into two groups with ten mice in each group. Treatment group received 2mg/kg CuB everyday by oral gavage. The tumor growth was monitored by measuring tumor volumes periodically. […] At day 60 of the treatment, tumor volume in the treated group was reduced by 55% as compared to the control group [249.5±30.3mm^3 vs 111.3±18.4mm^3; (n=10)] (Fig. 7Ai). The weight of the MDA-MB-231 tumors dissected from treated mice was about 53% less than the weight of tumors from control mice (Fig. 7Aii). […] In the other experiment, 0.1X10^6 4T-1 breast cancer cells were injected in the mammary fat pads of female BALB/c mice. 4T-1 cells are highly aggressive and considered to be late stage breast cancer. Once each mouse attained palpable tumors, mice were segregated into two groups with eight mice in each group. 1mg/kg CuB was given intraperitoneally, every third day to the mice of treatment group and the growth of the tumors monitored. […] For example, at day 28 of the treatment, 4T-1 tumor volume in the treated group was reduced by 39% as compared to control group [2355.3±236.4mm^3 vs 1446.7±142.6mm^3; (n=8)] (Fig. 7Bi). Similarly, the weight of the tumors in treated mice was reduced by 27% (Fig. 7Bii & iv). […] Since the weight of the mice dropped initially after intraperitoneal administration, we decided to evaluate the mice of treated group for any signs of gross toxicity. The organs of control and treated mice were weighed once the experiment was terminated. […] The enzymatic activities of AST, ALT and LDH were also evaluated in the plasma of control and CuB treated mice. […] The exact reasons behind the decrease in LDH level by CuB treatment was not clear and require further studies.

A short description of data set [2]: Body weight and organ weight (gross toxicity) in 4T-1 tumor-bearing mice. Format: in vivo, female BALB/c mice. As to the method: as §1
In another experiment, female BALB/c mice (4-6 weeks old) were obtained from Jackson Laboratories (Ban harbor, Maine, USA) and maintained under controlled humidity and temperature conditions. The use of BALB/c mice and their treatment was approved by the Institutional Animal Care and Use Committee (IACUC), Texas Tech University Health Sciences Center, and the experiments were conducted in strict compliance with the regulations. Exponentially growing 4T-1 cells were harvested, washed and re-suspended in PBS at a density of 1x10^6 cells per ml with 50% matrigel. A suspension of 0.1mL containing 0.1x10^6 cells was injected in the mammary fat pads of the recipient mice. Tumor volumes and animal weights were measured every alternate day as described by us previously. When the tumors reached a size of about 30-50 mm3, mice were randomly segregated into two groups with eight mice in each group. The treatment group of mice received 1mg/kg CuB in PBS by i.p. injection every third day till day 28. The control mice received vehicle alone. Mice were sacrificed on day 28 by CO2 overdose and death was confirmed by cervical dislocation in accordance with IACUC guidelines. The tumors were removed aseptically from each mouse, weighed and snap frozen in liquid-nitrogen for further analysis.

A further data set concerns breast cancer cells. Details: method as in PMID 23393598. To be noted: 48h of treatment, cell line not stated, cited from earlier work.
The nature of data set [3]: Mice weight in MDA-MB-231 tumor experiment. Format: in vivo, female athymic nude mice. Conditions: 2mg/kg oral gavage every day. How it is done: Female athymic nude mice (4-6 weeks old) were obtained from Jackson Laboratories (Ban harbor, Maine, USA) and maintained under specific pathogen-free conditions. The use of athymic nude mice and their treatment was approved by the Institutional Animal Care and Use Committee (IACUC), Texas Tech University Health Sciences Center, and the experiments were conducted in strict compliance with the regulations. Mice were given antioxidant-free AIN-76A special diet (TestDiet, Richmond, IN) one week before starting the experiment. Exponentially growing MDA-MB-231 cells were harvested, washed and resuspended in PBS at a density of 50x10^6 cells per ml with 80% matrigel (BD Biosciences, San Jose, CA). A suspension of 0.1mL containing 5x10^6 cells was injected in the mammary fat pads of the recipient mice. Tumor volumes and animal weights were measured twice a week as described by us previously. When the tumors reached a size of about 50-80 mm^3, mice were randomly segregated into two groups with ten mice in each group. Test group of mice received 2mg/kg CuB in PBS by oral gavage every day till day 60, whereas control mice received vehicle alone. Mice were sacrificed on day 60 by CO2 overdose and death was confirmed by cervical dislocation in accordance with IACUC guidelines. […]

The mark [4] stands for this setting: 1mg/kg i.p., ratio of organ to body weight.

Regarding Cucurbitacin B [CuB], the IC50 in the data set with MDA-MB-231 cells was 8 µM. In data set [1], the “ALT enzymatic activity in plasma” value is 18.41±1.6, the “AST enzymatic activity in plasma” value is listed as 90.54±19.5 and the “LDH enzymatic activity in plasma” value is 197.25±47.35. In addition, in data set [1] (vs control), the “change in the activity of ALT and AST” value is reported as “no significant change”; the “plasma LDH level reduction” value is 24.3%. Further, in data set [2] (1mg/kg i.p. every third day), the “weight of mice as compared to control” value was “transitory reduction in weight”; the “weight of organs like liver, spleen, kidney, lungs, brain and heart vs control” value was “No change”. In data set [2] (1mg/kg i.p., at termination), the Brain weight was determined as 0.38 ± 0.03 g, the Heart weight was found to be 0.17 ± 0.02 g, the Kidney weight is 0.43 ± 0.02 g and the Liver weight was determined as 1.53 ± 0.10 g. In data set [2] (1mg/kg i.p., at termination), this substance registered a Lungs weight of 0.33 ± 0.02 g, a Spleen weight of 0.7 ± 0.10 g and a body weight of 19.15 ± 1.17 g. For the same substance, in data set [2] (setting [4]), the Brain/Bw ratio is 0.02±0.01, the Heart/Bw ratio came to 0.01±0.01, the Kidney/Bw ratio came out at 0.02±0.01 and the Liver/BW ratio is listed as 0.08±0.00. Further, in data set [2] (setting [4]), the Lungs/Bw ratio is 0.02±0.00 and the Spleen/Bw ratio is reported as 0.04±0.00. The “IC50 (cytotoxicity)” value with breast cancer cells is 38.9 µg/mL. Also, the IC50 in the data set with breast cancer cells (read-out: IC50 (cytotoxicity)) was 70 µM. For the same substance, the weight of mice result in data set [3] is recorded as “did not change significantly”.

The values are drawn from article PMC4039119, “Inhibition of HER2-integrin signaling by Cucurbitacin B leads to in vitro and in vivo breast tumor growth suppression” (Oncotarget, 2014).
